This note sets out measurements from patent publication EP2982680B1, “PROTAMINE PEPTIDOMIMETIC, AND PHARMACEUTICALLY ACCEPTABLE SALTS AND USE THEREOF” (Academy of Military Medical Sciences, priority 2013, dated 2014).

Series [1] can be described thus: Water solubility of synthesized peptides.
Series [2] is described as follows: Acute toxicity test, tail vein injection (Bliss method). The format is in vivo, Kunming mice. To be noted: both sexes, Kunming, mouse, in vivo, iv; mice, tail vein injection, Bliss method; read-out: Median lethal dose LD50. As for the experimental part:
(§1) Sixteen healthy mice with a body weight of 18 to 22 g were selected which were not pregnant. They were provided with water but no food before the pilot trial. The protamine-like peptide was administrated at a dose (75 mg/kg) three times that of theoretically estimated one (25mg/kg). […] After administration, the mice were observed continuously for one week, and the general conditions such as the mental state as well as toxic response and death instances were recorded.
(§2) Based on the doses causing 0% and 100% mortality, the animals were divided into 6 groups with doses being respectively 25, 30, 35, 40, 45, and 50 mg/kg by using a dose ratio of about 0.85,
(§3) Seventy healthy mice which were not pregnant were taken and provided with water but no food prior to the test. The mice were randomly divided into six groups (10 mice per group) based on the body weight and the gender with half mice in each group being males. One group was injected with normal saline, and the other five groups were administrated with protamine-like peptides with different concentrations. On the day of test, mice in test groups received one dose via injection into tail veins whereas mice in control group received the same volume of normal saline. After administration, the mice were observed consecutively for two weeks, and the general conditions such as the mental state as well as toxic response and death instances were recorded.
(§4) Table 11. Median lethal dose calculated with Bliss method

In series [3] the test system is Kunming mice. Described as above. The format is in vivo. The note with it: for % Death (%): tail vein. The protocol: as §1, §2, §3, §4

Counter-ions that a name gives are not always drawn. Where only a bound is given, the exact number is not on record here.

A word on the LD50: it is the dose expected to kill half of the subjects tested.

As for `N[C@@H](Cc1c[nH]cn1)C(=O)N[C@@H](Cc1c[nH]cn1)C(=O)N[C@@H](Cc1c[nH]cn1)C(=O)N[C@@H](Cc1c[nH]cn1)C(=O)N[C@@H](Cc1c[nH]cn1)C(=O)N[C@@H](Cc1c[nH]cn1)C(=O)N[C@@H](Cc1c[nH]cn1)C(=O)N[C@@H](Cc1c[nH]cn1)C(=O)N[C@@H](Cc1c[nH]cn1)C(=O)N[C@@H](Cc1c[nH]cn1)C(=O)N[C@@H](Cc1c[nH]cn1)C(=O)N[C@@H](Cc1c[nH]cn1)C(=O)N[C@@H](Cc1c[nH]cn1)C(=O)N[C@@H](Cc1c[nH]cn1)C(=O)N[C@@H](Cc1c[nH]cn1)C(=O)O` [H15, (H)15], the water solubility entry in series [1] is reported as “good water solubility”.
On the same count and under the same terms, as for `N=C(N)NCCC[C@H](NC(=O)[C@H](CCCNC(=N)N)NC(=O)[C@H](CCCNC(=N)N)NC(=O)[C@H](CCCNC(=N)N)NC(=O)[C@H](CCCNC(=N)N)NC(=O)[C@H](CCCNC(=N)N)NC(=O)[C@H](CCCNC(=N)N)NC(=O)[C@H](CCCNC(=N)N)NC(=O)[C@H](CCCNC(=N)N)NC(=O)[C@H](CCCNC(=N)N)NC(=O)[C@H](CCCNC(=N)N)NC(=O)[C@H](CCCNC(=N)N)NC(=O)[C@H](CCCNC(=N)N)NC(=O)[C@H](CCCNC(=N)N)NC(=O)[C@@H](N)CCCNC(=N)N)C(=O)O` [R15 sulfate, (R)15 sulfate], the entry is “good water solubility”.
Take `N=C(N)NCCC[C@H](NC(=O)[C@H](CCCNC(=N)N)NC(=O)[C@H](CCCNC(=N)N)NC(=O)[C@H](CCCNC(=N)N)NC(=O)[C@H](CCCNC(=N)N)NC(=O)[C@H](CCCNC(=N)N)NC(=O)[C@H](CCCNC(=N)N)NC(=O)[C@H](CCCNC(=N)N)NC(=O)[C@H](CCCNC(=N)N)NC(=O)[C@H](CCCNC(=N)N)NC(=O)[C@H](CCCNC(=N)N)NC(=O)[C@H](CCCNC(=N)N)NC(=O)[C@H](CCCNC(=N)N)NC(=O)[C@H](CCCNC(=N)N)NC(=O)[C@@H](N)CCCNC(=N)N)C(=O)O` [R15, (R)15]: the water solubility entry in series [1] is given as “good water solubility”. Also, in series [2], the LD50 at 336 h came to 35.4 mg/kg. The “time of death after injection” value was no more than 2 h in series [3] (all death cases); “around 10 min” in series [3] (groups with high doses (40mg / kg and 45mg / kg)); no more than 0.5 h in series [3] (most mice of the death cases). Further, the “Regression probability unit (Y)” value was 3.2962 in series [3] (dose 25 mg/kg); 4.1897 in series [3] (dose 30 mg/kg); 4.9452 in series [3] (dose 35 mg/kg); 5.5996 in series [3] (dose 40 mg/kg); 6.1768 in series [3] (dose 45 mg/kg); 6.6932 in series [3] (dose 50 mg/kg). Besides, the “% Death (%)” value in series [3] (dose 25 mg/kg) is 0.00%; in series [3] (dose 30 mg/kg), 30.00%; in series [3] (dose 35 mg/kg), 50.00%; in series [3] (dose 40 mg/kg) it was 70.00%; in series [3] (dose 45 mg/kg), 80.00%; in series [3] (dose 50 mg/kg) it was 1E2%. The “Test probability unit (Y)” value in series [3] (dose 30 mg/kg) was found to be 4.476; in series [3] (dose 35 mg/kg), 5; in series [3] (dose 40 mg/kg), 5.524; in series [3] (dose 45 mg/kg), 5.8415. For the same molecule, in series [3] (mice, tail vein injection, Bliss method), the “Median lethal dose LD50” value is given as 35.394 mg/kg. Also, the “dose resulting in 0% mortality” value in series [3] (pilot trial, all 3 test mice survived) is 25 mg/kg. In addition, the “dose causing 100% mortality” value in series [3] (pilot trial, all 3 test mice were dead) was determined as 50 mg/kg. Besides, the “time until survived mice returned to normal state” value in series [3] (survived mice) was roughly 12 h.
